Tn6 DDE FP: DD(E)-Tn6 binding inhibition, primary FP screen. 0.21% of 370,000 active. inhibition, % at 8.3 µM. Fibrin DD(E) TRITC-Tn6 fluorescence polarization displacement. P02675;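 active means inhibition above a per-campaign cutoff: mean of compounds within control limits plus 3 SD, cut at about 15% in these data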;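 further: 0% = median of all compound wells on the plate and 100% = blocking peptide control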
Tn7 DDE FP: disrupts Tn7 cyclic peptide binding to fibrin D-Dimer-E complex | 0.13% of 370,000 active | FP displacement of FITC-Tn7 peptide from fibrin DD(E); 0% = median of compound wells per plate | inhibition, % at 8.3 µM | AID 720508;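 active means inhibition above the mean of compounds falling within the control limits plus 3 SD of them, cut at about 14% in these data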;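 further: 0% = plate median of compound wells and 100% = 10 µM Aha-Tn7 peptide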
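Assay system: Human fibrin DD(E) protein | Medium: Tris buffer with calcium and detergent, pH 7.8 | Reagent: 0.1 µM fluorescent Tn7 | Compound dosing: Single point at 8.3 µM | Times: 10 min preincubation, 3 h with tracer, room temperature | Detection: Fluorescence polarization of the labelled Tn7 tracer | Controls: Aha-Tn7 high control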
PglD inh: blocks C. jejuni PglD acetyltransferase activity. purified PglD enzyme, DTNB colorimetric CoA detection. inhibition, % at 12.5 µM. AID 602405. 0.098% of 360,000 active; in the data active means inhibition above about 16%, passing the limit was not always enough
Yeast UUG start-1: alters start codon recognition fidelity in yeast. S. cerevisiae UUG-firefly luciferase reporter, luminescence/redox ratio. AID 602363. activity score, % at 18.7 µM. hit rate 0.13% among 350,000;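 active = replicate mean at a twofold rise or more, about +100% in these data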;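 note: firefly luciferase made from a UUG start codon reports start codon fidelity; reporter light over untreated wells divided by growth signal over untreated wells; some hits fall short of that in this replicate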
Yeast UUG start-2: yeast start codon fidelity modulation | AID 652061 | 540 tested, under 10 active | shares compounds with Yeast UUG start-1 | activation, % at 38 µM | S. cerevisiae UUG-start firefly luciferase, luminescence, 4 h; 100% means double the DMSO signal;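 active means signal increase whose fitted curve reaches an absolute level of 40 at a concentration under 10 µM; inactive means activity opposite to the expected increase, or the rest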
* = called active by the depositor; i = inactive; · = no result given. Rows were chosen to be rich in hits. Some 0.45% of all compounds tested hit in one or more screens of this group.

Preview, 2 compounds:
Letters – A = Tn6 DDE FP; B = Tn7 DDE FP; C = PglD inh; D = Yeast UUG start-1; E = Yeast UUG start-2
1: CNC(=O)C1=C[C@H](c2csc3ccccc23)C[C@H](OCc2ccc(CO)cc2)O1
  A = · | B = · | C = -1 | D = 2 | E = ·
2: O=C(C1CCC1)N1C[C@H]2[C@@H](c3ccccc31)[C@H](CO)N2C(=O)c1ccccc1
  A = · | B = · | C = -3 | D = 101* | E = i

Results, repeating the preview:
Letters – A = Tn6 DDE FP; B = Tn7 DDE FP; C = PglD inh; D = Yeast UUG start-1; E = Yeast UUG start-2
1: CNC(=O)C1=C[C@H](c2csc3ccccc23)C[C@H](OCc2ccc(CO)cc2)O1
  A = · | B = · | C = -1 | D = 2 | E = ·
2: O=C(C1CCC1)N1C[C@H]2[C@@H](c3ccccc31)[C@H](CO)N2C(=O)c1ccccc1
  A = · | B = · | C = -3 | D = 101* | E = i
3: O=C(C1CCC1)N1C[C@@H]2[C@H](c3ccccc31)[C@H](CO)N2C(=O)c1ccccc1F
  A = · | B = · | C = -8 | D = 195* | E = i
4: O=C(O)CSc1nnc(-c2ccc(Cl)cc2)n1-c1ccccc1
  A = 6 | B = 1 | C = -10 | D = 124* | E = 0
5: O=C(O)CSc1nnc(-c2ccncc2)n1-c1ccc(Cl)cc1
  A = -3 | B = 3 | C = · | D = · | E = ·
6: C[C@@H]1CN([C@@H](C)CO)S(=O)(=O)c2ccc(-c3ccc(F)cc3)cc2O[C@@H]1CN(C)C(=O)Nc1ccccc1F
  A = · | B = · | C = -3 | D = -2 | E = ·
7: O=[N+]([O-])c1cc(C(F)(F)F)ccc1Oc1cccnc1[N+](=O)[O-]
  A = 5 | B = -6 | C = 5 | D = 190* | E = 17
8: C/C(=N\NC(=O)CC1N=C(Cc2ccccc2)NNC1=O)c1ccc(Br)cc1 (stereo not given)
  A = -2 | B = -7 | C = · | D = · | E = ·
9: C/C(=N\NC(=O)CC1N=C(Cc2ccccc2)NNC1=O)c1ccc(C)cc1 (stereo not given)
  A = 3 | B = -2 | C = 1 | D = 372* | E = 3
10: CO[C@H]1CN(C)C(=O)c2ccc(NC(=O)C3CC3)cc2OC[C@H](C)N(C(=O)c2ccccn2)C[C@H]1C
  A = · | B = · | C = -1 | D = · | E = ·

(next part)
Letters – A = Tn6 DDE FP; B = Tn7 DDE FP; C = PglD inh; D = Yeast UUG start-1; E = Yeast UUG start-2
11: O=C(CNC(=O)c1ccccc1Br)N/N=C/c1ccco1
  A = 8 | B = 3 | C = 2 | D = 308* | E = -11
12: C[C@H](CO)N1C[C@H](C)[C@@H](CN(C)C(=O)Nc2ccc(F)cc2)OCc2ccccc2-c2c(n(C)c3ccccc23)C1=O
  A = · | B = · | C = 6 | D = · | E = ·
13: CCOc1ccccc1C(=O)NCC(=O)OCC(=O)NCCc1ccc(S(N)(=O)=O)cc1
  A = -8 | B = -3 | C = 5 | D = 555* | E = 1
14: Cc1cc(C)c(-n2nnnc2SCC(=O)c2cccs2)c(C)c1
  A = -4 | B = 2 | C = 8 | D = active | E = -3
15: Cc1c(C(=O)CN2CCCC(C)(C)C2)c2ccccc2n1C
  A = 2 | B = -5 | C = 9 | D = active | E = -1
16: Cc1c(C(=O)CN2CCSCC2)c2ccccc2n1C
  A = 2 | B = -1 | C = 3 | D = -20 | E = ·
17: CNC(=O)c1ccccc1NC(=O)c1cccc(S(=O)(=O)N2CCCCC2)c1
  A = -1 | B = -7 | C = -2 | D = 188* | E = -3
18: CNC(=O)c1ccccc1NC(=O)c1cccc(S(=O)(=O)N2CCC(C)CC2)c1
  A = -4 | B = 5 | C = · | D = · | E = ·
19: CCNC(=O)C[C@@H]1CC[C@@H]2[C@H](COc3ccc(NC(=O)c4ccccc4Cl)cc3C(=O)N2C)O1
  A = · | B = · | C = 1 | D = 13 | E = ·
20: Fc1cccc(C2NN=C(c3ccccc3)S2)c1 (stereo not given)
  A = 12 | B = 5 | C = -3 | D = 267* | E = -13

Pulled by compound from the entries so far:
Letters – A = Tn6 DDE FP; B = Tn7 DDE FP; C = PglD inh; D = Yeast UUG start-1; E = Yeast UUG start-2
9: C/C(=N\NC(=O)CC1N=C(Cc2ccccc2)NNC1=O)c1ccc(C)cc1 (stereo not given)
  A = 3 | B = -2 | C = 1 | D = 372* | E = 3
11: O=C(CNC(=O)c1ccccc1Br)N/N=C/c1ccco1
  A = 8 | B = 3 | C = 2 | D = 308* | E = -11

Remaining list, next part.
#	compound	Tn6 DDE FP	Tn7 DDE FP	PglD inh	Yeast UUG start-1	Yeast UUG start-2
21	Cc1ccc(C2=NNC(c3cccc(F)c3)S2)cc1 (stereo not given)	-4	-2	·	·	·
22	C[C@@H]1CCCCO[C@H](CN(C)C(=O)Nc2ccc(F)cc2)[C@H](C)CN([C@@H](C)CO)C(=O)c2cc(NC(=O)CCCN(C)C)ccc2O1	·	·	-1	-8	·
23	O=c1c2c(n3cnnc3n1-c1ccccc1)-c1ccccc1CC21CCCCC1	5	-1	-5	active	-9
24	COCC(=O)N1CCN(c2ccc([N+](=O)[O-])cc2)CC1	-2	0	-2	671*	-2
25	C[C@@H]1CN([C@H](C)CO)C(=O)c2cc(NS(C)(=O)=O)ccc2O[C@@H]1CN(C)S(=O)(=O)c1ccccc1	·	·	·	-3	·
26	COCC#Cc1ccc2c(c1)O[C@H](CN(C)C(=O)c1ccccc1)[C@@H](C)CN([C@@H](C)CO)S2(=O)=O	·	·	2	-1	·
27	Cc1cnn(Cc2ccccc2)c1N	-6	-7	-1	605*	-6
28	CCOc1ccc(C=NC23CN4CN(CN(C4)C2)C3)cc1	0	2	4	462*	8
29	CO[C@H]1CN(C)C(=O)c2cc(NC(=O)Nc3ccccc3)ccc2OC[C@H](C)N(C(=O)CN(C)C)C[C@H]1C	·	·	-1	-3	·
30	Cc1cc(=O)[nH]c(=O)n1Cc1ccccc1	7	0	1	196*	1
31	O=C(Cc1c[nH]c2ccccc12)N1CCc2ccccc21	3	-1	4	344*	-1
32	O=C(CSc1c[nH]c2ccccc12)N1CCCc2ccccc21	0	-1	-3	-5	·
33	CCCc1nc2ccc(C)cn2c1Cc1ccccc1OC	0	5	0	45	·
